“Also recorded” adds a separate entry of the source.
How the values were obtained:
[1] = tested on: plasma lipoproteins and 600 lipid species; assay: Phase I trial lipoprotein (1H-NMR) and lipidomic (UHPLC-MS) profiling of fasting plasma; format: in vivo, human; conditions: for serum lipid levels (glycerolipids, glycerophospholipids, sphingolipids; atherogenic lipid classes): within 12 weeks of treatment
Method: (§1) To test the lipid-lowering effects of Pemvidutide, an analysis of Phase I clinical trial (NCT0456124) data was carried out. The subjects with overweight/obesity (BMI 25-40 kg/m^2) were randomized at 1 site in Australia (NCT0456124). Subjects were randomized 4:1 pemvidutide:placebo, with placebos pooled. The pemvidutide doses were 1.2 mg, 1.8 mg, and 2.4 mg, administered weekly for twelve (12) weeks, with no dose titration or adjunctive lifestyle intervention (no diet or exercise interventions). […] Lipoprotein and glycoprotein profiling covering 33 lipoprotein related parameters was performed by ^1H-NMR on fasting plasma samples obtained at Day −1 (baseline), Day 43, and Day 84 from the 34 subjects who completed NCT0456124. Lipidomic profiling covering 600 lipid species was performed by ultra-high performance liquid chromatography-mass spectrometry on fasting plasma samples obtained at Day −1 (baseline), Day 43, and Day 84 from the 34 subjects who completed NCT0456124. For the lipid profiling, plasma fractionation was performed either using methanol to extract fatty acyls, bile acids, steroids, and lyso-glycerophospholipids, or using a chloroform/methanol mix to extract glycerolipids, cholesteryl esters, sphingolipids, and glycerophospholipids. Lipid classification followed the classification system proposed by Fahy et al. (J. Lipid Res. 2005; 46:839-861) and the LIPID MAPS initiative (http://www.lipidmaps.org. See FIG. 1.
The color code represents the log 2 (robust fold-change) with blue colors denoting reduced lipoproteins (negative fold-changes) and red colors denoting increased lipoproteins (positive fold-changes).
Given the observed changes in the total cholesterol, triglycerides and lipoproteins, an evaluation of the serum lipid composition covering 600 lipid species at Day −1 (baseline), Day 43, and Day 84 from the 34 subjects who completed NCT0456124 was performed. Results are presented in FIG. 3 as log 2 pairwise fold change with blue colors denoting a reduction in the lipid relative to baseline, and red an increase. The grey/black bars indicate significant p-values of Wilcoxon test.
The horizontal dashed line represents the lower limit of significance, while the vertical lines show a fold-change from baseline of ±0.75 on the log 2 scale. Responses in the upper left quadrant indicate particularly meaningful changes in the atherogenic lipids.

[2] = tested on: subjects with overweight/obesity (BMI 25-40 kg/m^2); assay: Phase I clinical trial (NCT0456124), pharmacodynamic endpoints and tolerability, 12 weeks weekly dosing; format: in vivo, human
Method: as §1

[3] = tested on: ABCG5 gene expression in liver; assay: Liver gene expression by RT-PCR in diet-induced obese hamsters: ABCG5; format: in vivo, male Golden Syrian hamsters; conditions: 10 nmol/kg SC daily for 21 days, as opposed to semaglutide and vehicle
Method: The study was conducted in male Golden Syrian hamsters placed on a free choice diet (free choice between a chow diet with normal tap water or a high fat/cholesterol diet (Safe Diets, 40.8% fat, 14.8% protein, 44.4% carbohydrates and 0.5% cholesterol, 4444.2 kcal/kg diet) with 10% fructose enriched tap water (0.4 kcal/L) provided ad libitum for a minimum of 20 weeks prior to the study start and until the end of the experiment. After randomization based on body weight, hamsters were assigned to three groups of 5 animals receiving vehicle, pemvidutide (10 nmol/kg) or semaglutide (10 nmol/kg) administered subcutaneously daily for 21 days. After 21 days, hamsters were sacrificed, and livers were collected. Total RNA was extracted from frozen liver tissue before measuring gene expression by RT-PCR across a range of markers including CYP7A, ABCA1, ABCG1, ABCG5, ABCG8, SREBP1c, SRB1 and LDL-R.

[4] = 1.2 mg weekly, 12 weeks (n = 7)
[5] = 1.8 mg treatment group, week 12
[6] = 1.8 mg weekly, 12 weeks (n = 9)
[7] = 2.4 mg weekly, 12 weeks (n = 11)

CC[C@H](C)[C@H](NC(=O)[C@H](Cc1ccccc1)NC(=O)[C@H](CCC(=O)O)NC(=O)[C@@H]1CCCCNC(=O)CC[C@H](NC(=O)[C@H](CC(=O)O)NC(=O)[C@H](CC(C)C)NC(=O)[C@H](Cc2ccc(O)cc2)NC(=O)[C@H](CCCCN)NC(=O)[C@H](CO)NC(=O)[C@H](Cc2ccc(O)cc2)NC(=O)[C@H](CC(=O)O)NC(=O)[C@H](CO)NC(=O)[C@@H](NC(=O)[C@H](Cc2ccccc2)NC(=O)[C@@H](NC(=O)CNC(=O)[C@H](CCC(N)=O)NC(=O)C(C)(C)NC(=O)[C@@H](N)Cc2c[nH]cn2)[C@@H](C)O)[C@@H](C)O)C(=O)N[C@@H](CCCCNC(=O)[C@H]2O[C@@H](OCCCCCCCCCCCCCCCCCC(=O)O)[C@H](O)[C@@H](O)[C@@H]2O)C(=O)N[C@@H](C)C(=O)N[C@@H](C)C(=O)N1)C(=O)N[C@@H](CCC(N)=O)C(=O)N[C@@H](Cc1c[nH]c2ccccc12)C(=O)N[C@@H](CC(C)C)C(=O)N[C@@H](CC(C)C)C(=O)N[C@@H](CCC(N)=O)C(=O)N[C@H](C(N)=O)[C@@H](C)O [pemvidutide]
atherosclerotic plaque forming phosphatidyl-ethanolamine (PE) glycerophospholipids level ([1]; 1.8 mg dose, vs baseline): significantly reduced
pro-atherogenic lyso-PC levels ([1]; 1.8 mg dose, vs baseline): significantly reduced
number of VLDL and LDL particles and number of smaller HDL particles (2D-NMR) ([1]; Day 43 and Day 84 vs Day −1, 1.2, 1.8, 2.4 mg): tend to be reduced
reductions across multiple bioactive lipid classes compared to placebo ([1]; at Day 85): substantial and highly statistically significant reductions
serum lipid levels (glycerolipids, glycerophospholipids, sphingolipids; atherogenic lipid classes) ([1]; vs baseline): significantly reduced
serum lipid levels (glycerolipids, glycerophospholipids, sphingolipids; atherogenic lipid classes) ([1]; vs baseline, listed as Pemvidutide): significantly reduced; also recorded: statistically significant reductions
BMI, % mean, change from baseline [2, 4]: −4.8%
Diastolic BP, % mean, change from baseline [2, 4]: −4.7%
HDL cholesterol, % mean, change from baseline [2, 4]: −16.7%
LDL cholesterol, % mean, change from baseline [2, 4]: −18.4%
Systolic BP, % mean, change from baseline [2, 4]: −10.2%
Total cholesterol, % mean, change from baseline [2, 4]: −20.0%
Triglycerides, % mean, change from baseline [2, 4]: −37.0%
Weight loss, % mean, change from baseline [2, 4]: −4.9%
mean body weight loss ([2]; 1.8 mg dose level, week 12): 10.3%
mean body weight loss after subtraction of placebo ([2]; 1.8 mg dose level, week 12): 8.7%
subjects who achieved at least 10% body weight loss [2, 5]: over half
subjects who lost at least 5% of their body weight [2, 5]: all subjects
Apoprotein B, % mean, change from baseline [2, 6]: −23.4%
BMI, % mean, change from baseline [2, 6]: −10.4%
Diastolic BP, % mean, change from baseline [2, 6]: −7.1%
HDL cholesterol, % mean, change from baseline [2, 6]: −30.3%
LDL cholesterol, % mean, change from baseline [2, 6]: −25.6%
Systolic BP, % mean, change from baseline [2, 6]: −12.5%
Total cholesterol, % mean, change from baseline [2, 6]: −28.0%
Triglycerides, % mean, change from baseline [2, 6]: −37.9%
Weight loss, % mean, change from baseline [2, 6]: −10.3%
Apoprotein B, % mean, change from baseline [2, 7]: −16.8%
Diastolic BP, % mean, change from baseline [2, 7]: −6.0%
HDL cholesterol, % mean, change from baseline [2, 7]: −36.0%
LDL cholesterol, % mean, change from baseline [2, 7]: −23.9%
Systolic BP, % mean, change from baseline [2, 7]: −17.4%
Total cholesterol, % mean, change from baseline [2, 7]: −27.7%
Triglycerides, % mean, change from baseline [2, 7]: −29.2%
Weight loss, % mean, change from baseline [2, 7]: −9.0%
weight loss as compared to placebo ([2]; 12 weeks of weekly administration): significant weight loss
mean weight losses observed in the study ([2]; across dose levels, 12 weeks): up to 10.3%
SAEs or AEs leading to treatment discontinuation ([2]; all dose groups, 12 weeks): no SAEs or AEs leading to treatment discontinuation
severity of AEs ([2]; all dose groups, 12 weeks): mild or moderate
tolerability ([2]; all dose levels (1.2, 1.8, 2.4 mg weekly), without dose titration): safe and well-tolerated
ABCG5 gene expression in liver, fold change compared to vehicle [3]: significant increase
